Source: publication PMC6610660 (Structure (London, England : 1993), 2019)

The chains behind the UniProt entries cited, without tags or fusion partners. Where a name states a change or a piece, a line headed by the entry shows the natural chain unless it says otherwise.
UniProt Q9GZZ1: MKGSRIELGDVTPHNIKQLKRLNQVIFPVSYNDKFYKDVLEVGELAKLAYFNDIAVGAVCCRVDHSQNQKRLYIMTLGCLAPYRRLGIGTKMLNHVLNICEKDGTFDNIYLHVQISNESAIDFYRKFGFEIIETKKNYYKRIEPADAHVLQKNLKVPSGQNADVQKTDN

Target: hNaa50 (Homo sapiens, UniProt Q9GZZ1)
Conditions: 20 °C, pH 7.0, 200 mM NaCl, 1 mM DTT

CC(=O)SCCNC(=O)CCNC(=O)[C@H](O)C(C)(C)COP(=O)(O)OP(=O)(O)OC[C@H]1O[C@@H](n2cnc3c(N)ncnc32)[C@H](O)[C@@H]1OP(=O)(O)O [acetyl-CoA]
ITC: Using ITC, we were able to detect acetyl-CoA binding to hNaa50
